This is one part of the list.
Test system: A. baumannii ATCC 17978
Experiment: relative growth (fraction of control); higher = less inhibition
Settings: 50 µM

| SMILES | relative growth |
| --- | --- |
| O=C(C[C@@H]1CC[C@H]2[C@@H](COC[C@@H](O)CN2Cc2cccc(C(F)(F)F)c2)O1)NCCc1ccncc1 | 0.887 |
| CN(C)c1nc(NCCO)c2cnn(C)c2n1 | 0.966 |
| COc1ccc(S(=O)(=O)N[C@@H]2CC[C@H](CCNC(=O)CN3CCOCC3)O[C@H]2CO)cc1 | 1.09 |
| C/C=C/C(=O)c1cc(Cl)ccc1O | 0.941 |
| CCOC(=O)C1=NNC[C@@H]1C(=O)OCC | 1.07 |
| Cc1nc(N)c(C(=O)O)nc1C | 0.901 |
| COCC(=O)Nc1ccc2c(c1)OC[C@H](C)N(C(=O)Cc1cccnc1)C[C@@H](C)[C@@H](OC)CN(C)C2=O | 1.07 |
| COc1cc2c(cc1OC)[C@@H]1C(=O)c3ccc4c(c3O[C@@H]1CO2)C=CC(C)(C)O4 | 1.48 |
| S=c1[nH]cnc2nc[nH]c12 | 1.06 |
| CN(C)CCCCCCNC(=O)[C@@H]1C[C@@H]2C(=O)N[C@@H](CCCC[N+](C)(C)C)C(=O)N2[C@@H]1c1cccc(OCCO)c1 | 0.985 |
| CC(=O)n1cc([C@@H]2C=C(C(=O)N3CCN(C)CC3)O[C@H](OCc3ccc(CO)cc3)C2)c2ccccc21 | 0.877 |
| CCCCCCCCNC(C)C(O)c1ccc(SC(C)C)cc1 (configuration not stated) | 0.364 |
| CNCC[C@@H](Oc1ccccc1C)c1ccccc1.Cl | 1.11 |
| CCNC(=O)C[C@H]1C=C[C@H](NC(=O)C2CC2)[C@H](CO)O1 | 0.982 |
| CN1C(=O)[C@@H]2[C@@H](C(=O)c3ccccn3)[C@@H]2C1=O | 0.86 |
| O=C(C[C@@H]1C=C[C@H](NC(=O)CN2CCOCC2)[C@@H](CO)O1)NCCc1ccncc1 | 1 |
| CC1(C)O[C@@H]2CC3C4C[C@H](F)C5=CC(=O)C=C[C@]5(C)[C@@]4(F)[C@@H](O)C[C@]3(C)[C@]2(C(=O)CO)O1 (some centres not stated) | 1.15 |
| CO[C@H]1CN(C)C(=O)c2cc(NC(=O)c3ccc(F)cc3)ccc2OC[C@H](C)N(C(=O)CN(C)C)C[C@H]1C | 1.02 |
| O=C1Nc2ccccc2Oc2cc(Sc3ccccc3)ccc21 | 1.15 |
| CN(C)CCCNC(=O)C[C@@H]1C=C[C@H](NS(=O)(=O)c2ccccc2)[C@@H](CO)O1 | 1.01 |
| Cn1cnc(S(=O)(=O)N2C[C@@H](O)COC[C@@H]3O[C@@H](CC(=O)NCc4ccc(F)cc4)CC[C@H]32)c1 | 1.28 |
| COc1ccc(C#Cc2ccc3c(c2)[C@@]2(C(=O)N3C(=O)N[C@@H](C)c3ccccc3)[C@H](c3ccc(OCCO)cc3)N3[C@H](c4ccccc4)[C@H](c4ccccc4)OC(=O)[C@H]3[C@@H]2C(=O)O)cc1 | 1.35 |
| N=C(N)NCCCCNC(=N)N.O=S(=O)(O)O | 0.948 |
| CC(C)[C@@H]1CC[C@@H](C)CC1=O | 1.01 |
| CC(=O)c1cc2ccccc2s1 | 0.941 |
| Nc1nc(C(F)(F)F)ncc1C(=O)O | 1.08 |

| SMILES | relative growth |
| --- | --- |
| O=C(C[C@H]1C[C@H]2c3cc(NS(=O)(=O)c4ccc(F)cc4)ccc3O[C@H]2[C@H](CO)O1)NC1CCCC1 | 0.956 |
| O=C(NO)c1ccc(C(=O)N/N=C/[C@H](O)[C@@H](O)[C@H](O[C@@H]2O[C@H](CO)[C@H](O)[C@H](O)[C@H]2O)[C@H](O)CO)cc1 | 1.1 |
| COC(=O)c1c(C)c2c(c(C)c1O)OC(=O)c1c(C)c(Cl)c(O)c(Cl)c1O2 | 0.903 |
| Cc1ccc(S(=O)(=O)N[C@H]2CC[C@H](CCNC(=O)CN3CCOCC3)O[C@H]2CO)cc1 | 1.14 |
| C[C@@H]1CN([C@H](C)CO)S(=O)(=O)c2ccc(C3=CCCC3)cc2O[C@@H]1CN(C)C(=O)Cc1ccncc1 | 0.972 |
| Cc1ccc(C)c(OCCCC(C)(C)C(=O)O)c1 | 0.999 |
| O=C(C[C@H]1C=C[C@@H](NC(=O)C2CC2)[C@H](CO)O1)NCCCN1CCOCC1 | 0.984 |
| O=C(CS)NCCCCCCNC(=O)[C@@H]1C[C@@H]2C(=O)NCC(=O)N2[C@@H]1c1cccc(OCCO)c1 | 0.987 |
| COc1c(-c2ccccc2)oc2c(ccc3ccoc32)c1=O | 1.12 |
| COc1ccccc1-c1ccc2c(c1)O[C@@H](CN(C)C(=O)c1cccnc1)[C@@H](C)CN([C@H](C)CO)S2(=O)=O | 0.999 |
| CCNC(=O)C[C@H]1CC[C@H](NC(=O)C2CC2)[C@@H](CO)O1 | 0.97 |
| Cc1nc2c(cc1C(=O)NN)c(=O)n(C)c(=O)n2C | 0.954 |
| C[C@@H]1ON(c2ccc(C(=O)OC(C)(C)C)cc2)[C@H](c2ccc(O)cc2)[C@H]1C(=O)N1C(=O)OC[C@H]1Cc1ccccc1 | 0.935 |
| C[C@H]1CN([C@@H](C)CO)S(=O)(=O)c2ccc(C#CCN(C)C)cc2O[C@H]1CN(C)C(=O)c1ccccc1F | 1.13 |
| O=C(CCCN1CCC(O)(c2ccc(Cl)cc2)CC1)c1ccc(F)cc1 | 0.725 |
| CC(C)NC(=O)c1cccc2cccc(Sc3ccccc3)c12 | 1.13 |
| CC1(C)C=C(C(=O)N2CCOCC2)C(C)(C)N1 | 0.984 |
| C=CCOC(=O)[C@@H]1[C@H]2C(=O)O[C@H](c3ccccc3)[C@H](c3ccccc3)N2[C@H](c2ccc(OCCOC(=O)[C@H]3C[C@H]4C(=O)N[C@@H](CC(C)C)C(=O)N4[C@H]3c3cccc(OCCO)c3)cc2)[C@@]12C(=O)Nc1ccc(I)cc12 | 1.12 |
| C[C@H](NC(=O)C[C@@H]1CC[C@@H](NC(=O)CN2CCOCC2)[C@H](CO)O1)c1ccccc1 | 0.956 |
| Nc1ncnc2c1ncn2C1O[C@H](COP(=O)(O)O)[C@@H](O)[C@H]1O (some centres not stated) | 0.898 |
| CCCNC(=O)N1C[C@H](O)COC[C@H]2O[C@H](CC(=O)NCCCN3CCOCC3)CC[C@@H]21 | 1.19 |
| COc1cccc(S(=O)(=O)Nc2ccc3c(c2)[C@H]2C[C@H](CC(=O)NC4CCCCC4)O[C@H](CO)[C@H]2O3)c1 | 0.95 |
| NC(=O)c1ccc[n+]([C@@H]2O[C@H](COP(=O)([O-])OP(=O)(O)OC[C@H]3O[C@@H](n4cnc5c(N)ncnc54)[C@H](O)[C@@H]3O)[C@@H](O)[C@H]2O)c1 | 1.02 |
| O=C(C[C@H]1CC[C@H](NC(=O)C2CC2)[C@@H](CO)O1)NCCCN1CCOCC1 | 0.948 |
| O=C(Cc1ccccn1)NCC[C@H]1CC[C@@H](NC(=O)CN2CCOCC2)[C@H](CO)O1 | 0.963 |
| Cc1ccc(S(=O)(=O)N2C[C@@H](O)COC[C@H]3O[C@H](CC(=O)NCc4ccc(Cl)c(Cl)c4)CC[C@@H]32)cc1 | 1 |

— published antibiotic growth screens (doi:10.1038/s41589-023-01349-8)
